Experiment in all cases: Ki determination for immobilized VI16742: two consecutive incubations, control beads, ligand concentration and incubation time controls (Tables 7, 8)
Common to all, as to type: binding

By UniProt entry, the sequences of proteins in these tests, tags left out. Where a name states a change or a piece, a line headed by the entry shows the natural chain unless it says otherwise.
UniProt P14635, whole entry: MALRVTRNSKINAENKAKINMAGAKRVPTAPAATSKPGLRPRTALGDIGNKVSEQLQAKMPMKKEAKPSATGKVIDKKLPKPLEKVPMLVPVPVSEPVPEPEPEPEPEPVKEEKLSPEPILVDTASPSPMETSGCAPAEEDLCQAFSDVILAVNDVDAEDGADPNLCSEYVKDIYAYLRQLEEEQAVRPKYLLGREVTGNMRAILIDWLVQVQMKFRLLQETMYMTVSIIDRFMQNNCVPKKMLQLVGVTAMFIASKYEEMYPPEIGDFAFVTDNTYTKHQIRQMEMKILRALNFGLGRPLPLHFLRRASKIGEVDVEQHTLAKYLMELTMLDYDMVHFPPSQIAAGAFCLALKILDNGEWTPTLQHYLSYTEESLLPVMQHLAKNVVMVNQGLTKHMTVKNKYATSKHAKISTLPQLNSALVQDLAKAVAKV
UniProt P27707: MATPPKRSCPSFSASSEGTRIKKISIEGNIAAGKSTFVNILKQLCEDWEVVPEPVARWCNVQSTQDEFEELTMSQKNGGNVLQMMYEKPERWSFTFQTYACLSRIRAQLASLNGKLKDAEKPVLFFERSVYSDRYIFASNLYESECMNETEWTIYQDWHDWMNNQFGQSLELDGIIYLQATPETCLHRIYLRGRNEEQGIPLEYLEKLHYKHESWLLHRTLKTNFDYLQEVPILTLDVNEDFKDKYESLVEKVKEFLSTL
UniProt P42684, whole entry: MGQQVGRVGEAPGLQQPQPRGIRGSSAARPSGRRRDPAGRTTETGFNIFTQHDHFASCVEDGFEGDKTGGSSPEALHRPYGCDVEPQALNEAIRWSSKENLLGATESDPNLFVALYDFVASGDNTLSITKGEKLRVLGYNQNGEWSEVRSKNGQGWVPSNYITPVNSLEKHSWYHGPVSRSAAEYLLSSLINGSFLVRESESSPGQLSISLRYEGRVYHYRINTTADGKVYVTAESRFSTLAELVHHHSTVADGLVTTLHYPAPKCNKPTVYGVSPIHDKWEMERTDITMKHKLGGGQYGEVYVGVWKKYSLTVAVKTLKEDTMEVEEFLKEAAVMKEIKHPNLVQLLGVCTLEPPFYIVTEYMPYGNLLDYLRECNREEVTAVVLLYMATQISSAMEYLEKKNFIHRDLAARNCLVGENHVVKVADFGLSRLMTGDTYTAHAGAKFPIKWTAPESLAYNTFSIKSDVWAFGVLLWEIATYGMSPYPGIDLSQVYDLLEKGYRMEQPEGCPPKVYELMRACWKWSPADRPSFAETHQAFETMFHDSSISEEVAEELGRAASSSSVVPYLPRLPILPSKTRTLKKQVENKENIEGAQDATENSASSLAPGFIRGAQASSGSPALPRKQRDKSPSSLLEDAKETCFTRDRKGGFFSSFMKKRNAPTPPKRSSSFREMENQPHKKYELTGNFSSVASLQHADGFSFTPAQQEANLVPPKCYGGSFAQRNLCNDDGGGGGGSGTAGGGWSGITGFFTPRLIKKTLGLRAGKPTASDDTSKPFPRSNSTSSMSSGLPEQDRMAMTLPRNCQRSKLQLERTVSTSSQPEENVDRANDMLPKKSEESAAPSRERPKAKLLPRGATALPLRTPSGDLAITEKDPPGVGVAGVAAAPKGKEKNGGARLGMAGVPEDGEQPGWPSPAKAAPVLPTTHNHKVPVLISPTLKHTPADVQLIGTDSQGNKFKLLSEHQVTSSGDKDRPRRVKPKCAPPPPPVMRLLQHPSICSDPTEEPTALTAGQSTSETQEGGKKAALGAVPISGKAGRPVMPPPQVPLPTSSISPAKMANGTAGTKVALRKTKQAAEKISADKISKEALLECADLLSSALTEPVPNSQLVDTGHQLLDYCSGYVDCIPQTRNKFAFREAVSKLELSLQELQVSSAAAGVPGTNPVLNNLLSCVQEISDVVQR
UniProt P28482, whole entry: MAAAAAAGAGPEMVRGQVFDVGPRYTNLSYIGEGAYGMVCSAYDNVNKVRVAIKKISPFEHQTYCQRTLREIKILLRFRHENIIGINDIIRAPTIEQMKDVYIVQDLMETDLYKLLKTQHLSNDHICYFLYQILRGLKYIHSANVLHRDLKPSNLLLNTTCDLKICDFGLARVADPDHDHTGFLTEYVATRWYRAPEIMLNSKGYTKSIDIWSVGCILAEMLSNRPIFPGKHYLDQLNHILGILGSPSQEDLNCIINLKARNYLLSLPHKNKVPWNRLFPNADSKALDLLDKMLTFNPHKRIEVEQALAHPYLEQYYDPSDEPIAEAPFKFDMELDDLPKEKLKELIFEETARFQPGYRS
UniProt Q9BVS4: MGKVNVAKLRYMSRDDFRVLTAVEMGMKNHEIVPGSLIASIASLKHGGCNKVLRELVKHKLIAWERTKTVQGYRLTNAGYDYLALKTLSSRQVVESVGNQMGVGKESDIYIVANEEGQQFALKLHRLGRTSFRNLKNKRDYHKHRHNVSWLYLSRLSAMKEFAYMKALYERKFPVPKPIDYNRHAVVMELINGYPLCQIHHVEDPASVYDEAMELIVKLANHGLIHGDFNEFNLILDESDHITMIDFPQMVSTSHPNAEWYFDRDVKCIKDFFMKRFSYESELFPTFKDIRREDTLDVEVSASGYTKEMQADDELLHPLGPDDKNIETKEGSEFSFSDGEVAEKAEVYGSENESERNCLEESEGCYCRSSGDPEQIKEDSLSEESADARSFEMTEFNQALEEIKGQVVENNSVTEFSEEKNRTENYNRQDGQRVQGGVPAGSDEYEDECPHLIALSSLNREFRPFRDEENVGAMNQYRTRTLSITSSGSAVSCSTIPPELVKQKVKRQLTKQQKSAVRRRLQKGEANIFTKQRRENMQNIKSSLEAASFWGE
UniProt Q9P289: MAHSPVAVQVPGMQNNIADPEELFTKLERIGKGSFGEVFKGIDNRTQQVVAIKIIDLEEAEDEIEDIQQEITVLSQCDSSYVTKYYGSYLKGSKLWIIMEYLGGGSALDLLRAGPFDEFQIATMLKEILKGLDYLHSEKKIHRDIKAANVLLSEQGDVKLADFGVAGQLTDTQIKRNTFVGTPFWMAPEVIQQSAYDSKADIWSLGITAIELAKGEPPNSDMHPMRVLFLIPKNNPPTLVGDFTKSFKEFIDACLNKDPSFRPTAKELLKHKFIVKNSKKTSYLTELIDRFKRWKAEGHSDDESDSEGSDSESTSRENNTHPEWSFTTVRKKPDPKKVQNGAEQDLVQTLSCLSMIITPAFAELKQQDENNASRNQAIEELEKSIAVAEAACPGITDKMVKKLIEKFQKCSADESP
UniProt Q9Y6I9: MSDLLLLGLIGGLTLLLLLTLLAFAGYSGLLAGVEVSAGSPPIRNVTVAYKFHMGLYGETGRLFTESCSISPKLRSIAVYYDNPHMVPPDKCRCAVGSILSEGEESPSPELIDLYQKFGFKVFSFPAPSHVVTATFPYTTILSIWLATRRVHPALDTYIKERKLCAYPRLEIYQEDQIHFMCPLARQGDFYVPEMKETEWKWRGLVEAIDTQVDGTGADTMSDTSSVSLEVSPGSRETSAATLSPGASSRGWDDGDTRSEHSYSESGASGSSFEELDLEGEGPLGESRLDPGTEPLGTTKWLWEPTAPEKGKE
UniProt O43353, whole entry: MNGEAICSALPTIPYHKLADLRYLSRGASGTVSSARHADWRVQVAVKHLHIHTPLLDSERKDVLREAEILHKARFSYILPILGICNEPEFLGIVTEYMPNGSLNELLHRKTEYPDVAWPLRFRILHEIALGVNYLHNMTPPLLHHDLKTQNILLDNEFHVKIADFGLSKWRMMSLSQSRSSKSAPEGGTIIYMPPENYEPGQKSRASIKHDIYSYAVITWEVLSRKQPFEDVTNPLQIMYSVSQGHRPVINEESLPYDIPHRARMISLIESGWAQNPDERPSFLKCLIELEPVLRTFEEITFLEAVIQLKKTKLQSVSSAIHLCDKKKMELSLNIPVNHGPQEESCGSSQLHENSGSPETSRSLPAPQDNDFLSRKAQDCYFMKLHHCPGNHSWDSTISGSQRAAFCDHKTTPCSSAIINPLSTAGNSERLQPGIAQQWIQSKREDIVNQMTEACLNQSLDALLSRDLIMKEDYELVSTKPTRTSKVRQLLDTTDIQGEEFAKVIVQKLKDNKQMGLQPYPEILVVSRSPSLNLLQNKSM
UniProt Q5VT25: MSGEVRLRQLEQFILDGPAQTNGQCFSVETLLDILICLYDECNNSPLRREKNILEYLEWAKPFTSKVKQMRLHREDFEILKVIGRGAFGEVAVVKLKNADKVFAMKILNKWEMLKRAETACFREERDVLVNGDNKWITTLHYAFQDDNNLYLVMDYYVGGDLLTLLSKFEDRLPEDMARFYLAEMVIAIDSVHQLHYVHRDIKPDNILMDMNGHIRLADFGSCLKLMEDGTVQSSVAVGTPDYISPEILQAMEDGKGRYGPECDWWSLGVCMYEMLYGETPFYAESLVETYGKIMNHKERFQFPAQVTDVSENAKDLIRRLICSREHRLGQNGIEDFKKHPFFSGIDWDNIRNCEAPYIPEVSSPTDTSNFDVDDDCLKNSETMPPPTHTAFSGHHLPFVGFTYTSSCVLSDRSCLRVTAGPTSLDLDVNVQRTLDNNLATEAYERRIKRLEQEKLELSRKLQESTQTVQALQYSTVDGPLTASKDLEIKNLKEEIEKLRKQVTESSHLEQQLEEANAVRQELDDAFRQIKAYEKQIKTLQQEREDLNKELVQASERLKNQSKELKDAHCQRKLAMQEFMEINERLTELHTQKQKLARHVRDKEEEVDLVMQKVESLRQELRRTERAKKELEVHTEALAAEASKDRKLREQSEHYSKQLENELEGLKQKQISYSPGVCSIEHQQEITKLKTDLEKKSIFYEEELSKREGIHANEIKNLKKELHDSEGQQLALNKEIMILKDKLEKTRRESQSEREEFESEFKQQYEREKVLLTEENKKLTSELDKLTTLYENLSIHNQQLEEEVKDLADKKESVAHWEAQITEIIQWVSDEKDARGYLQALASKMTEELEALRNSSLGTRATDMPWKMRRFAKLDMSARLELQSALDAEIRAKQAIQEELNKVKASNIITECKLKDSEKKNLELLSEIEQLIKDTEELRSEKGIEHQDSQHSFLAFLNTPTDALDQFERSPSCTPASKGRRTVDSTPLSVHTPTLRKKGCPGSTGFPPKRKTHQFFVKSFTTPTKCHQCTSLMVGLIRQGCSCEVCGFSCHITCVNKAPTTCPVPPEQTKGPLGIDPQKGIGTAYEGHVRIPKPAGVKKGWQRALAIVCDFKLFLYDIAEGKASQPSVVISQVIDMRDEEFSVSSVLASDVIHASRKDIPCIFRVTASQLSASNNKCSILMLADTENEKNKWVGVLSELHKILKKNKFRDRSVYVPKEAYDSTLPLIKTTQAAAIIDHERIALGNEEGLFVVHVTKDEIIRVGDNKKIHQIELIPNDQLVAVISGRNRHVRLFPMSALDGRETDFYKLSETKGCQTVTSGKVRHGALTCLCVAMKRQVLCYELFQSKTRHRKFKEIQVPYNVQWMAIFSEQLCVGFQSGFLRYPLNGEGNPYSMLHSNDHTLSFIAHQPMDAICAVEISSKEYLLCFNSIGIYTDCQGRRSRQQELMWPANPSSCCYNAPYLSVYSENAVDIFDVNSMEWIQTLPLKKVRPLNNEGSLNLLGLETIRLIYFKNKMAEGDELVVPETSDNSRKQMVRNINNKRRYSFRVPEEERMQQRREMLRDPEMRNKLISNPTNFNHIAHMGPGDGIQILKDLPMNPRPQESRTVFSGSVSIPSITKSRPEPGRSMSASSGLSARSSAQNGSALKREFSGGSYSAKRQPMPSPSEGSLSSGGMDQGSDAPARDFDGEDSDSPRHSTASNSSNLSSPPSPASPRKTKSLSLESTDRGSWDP
UniProt Q96BR1: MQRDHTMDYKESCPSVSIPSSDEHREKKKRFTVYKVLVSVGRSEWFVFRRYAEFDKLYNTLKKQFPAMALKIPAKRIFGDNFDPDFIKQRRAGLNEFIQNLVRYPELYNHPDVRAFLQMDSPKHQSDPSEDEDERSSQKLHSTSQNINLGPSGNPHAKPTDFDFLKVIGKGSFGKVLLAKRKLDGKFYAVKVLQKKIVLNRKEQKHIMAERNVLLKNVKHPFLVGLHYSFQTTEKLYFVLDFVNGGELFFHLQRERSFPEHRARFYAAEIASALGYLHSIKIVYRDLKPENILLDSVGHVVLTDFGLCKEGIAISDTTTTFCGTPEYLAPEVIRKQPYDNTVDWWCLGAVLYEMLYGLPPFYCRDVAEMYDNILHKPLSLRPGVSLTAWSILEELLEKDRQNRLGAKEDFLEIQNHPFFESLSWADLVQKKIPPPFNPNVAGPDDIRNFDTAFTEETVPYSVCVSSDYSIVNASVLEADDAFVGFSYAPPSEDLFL

The target of test [1] is cellular target proteins in HeLa cell lysate (Homo sapiens, UniProt P14635). Conditions: Ki (VI16742), CCNB1 IPI00745793. From the text: (§1) In an alternative implementation of the chemical proteomic approach according to the invention, the broadly-selective pyrido[2,3-d]pyrimidine-based kinase inhibitor VI16742 has been used for affinity capture (FIG. 10a). […] As shown by gene ontology analysis, the corresponding molecular functions were highly over-represented in proteins specifically retained by the inhibitor resin (FIG. 10b).
(§2) Cysteine carbamidomethylation was set as a fixed modification and N-acetyl protein and oxidized methionine were allowed as variable modifications. Spectra that were determined to result from heavy labeled peptides in the pre-search detection of SILAC partners by MaxQuant were searched with the fixed modifications Lys^4, Lys^8, Arg^6 and Arg^10, whereas MS/MS spectra for which no SILAC state could be assigned before database searching were searched with Lys^4, Lys^8, Arg^6 and Arg^10 as variable modifications. The mass tolerance was set to 5 ppm for monoisotopic precursor ions and to 0.5 Da for MS/MS peaks. The minimum peptide length was set to 6 amino acids and up to three missed cleavages and three isotopically labeled amino acids were permitted per peptide. The accepted false discovery rate (FDR) was 1% for the proteins and peptides. The cut-off for the posterior error probability (PEP) of peptides was set to 10%. Peptide PEPs were determined by generating Mascot score and peptide-length-dependent histograms for both the forward and the reverse hits and then deriving the probability of a false identification for a given top-scoring peptide using Bayes' theorem. The PEPs of peptides belonging to the same proteins were then multiplied. Each peptide sequence was considered only once with the lowest PEP determined in case of multiple sequencing of the same isotopic pattern or of peptide species with different SILAC, charge or modification states. Proteins were then sorted according to their products of their peptide PEPs and included until a FDR of 1% was reached according to the fraction of reverse proteins contained in the protein list. In addition to the FDR threshold applied for protein identification, proteins were only included when they were identified with at least two peptides (of which one was required to be unique for the protein) and quantified if at least on quantifiable SILAC pair was associated with them. Outliers were not removed as protein ratios were calculated as the median instead of the average of all peptide ratios. For peptides shared among different identified proteins, SILAC ratios were only considered for the ratio of the protein identified with the highest number of unique peptides. Protein ratios for the different in vitro association experiments were corrected for the initial SILAC pooling ratio, which was determined from the median of protein ratios in pooled SILAC-encoded cell extracts.

Test [2] deals with cellular target proteins in HeLa cell lysate (Homo sapiens, UniProt P29323). Conditions: Ki (VI16742), EphB2 (EPHB2) IPI00021275.
Description: as §1, §2

The target of test [3] is cellular target proteins in HeLa cell lysate (Homo sapiens, UniProt P27707). The conditions noted are these: Ki (VI16742), DCK IPI00020454.
Description: as §1, §2

Test [4] deals with cellular target proteins in HeLa cell lysate (Homo sapiens, UniProt P42684). Conditions: Ki (VI16742), ARG (ABL2) IPI00329488.
Description: as §1, §2

Test [5] has as its target T1, cellular target proteins in HeLa cell lysate (Homo sapiens, UniProt O15530).
T1 sequence (O15530 1-556): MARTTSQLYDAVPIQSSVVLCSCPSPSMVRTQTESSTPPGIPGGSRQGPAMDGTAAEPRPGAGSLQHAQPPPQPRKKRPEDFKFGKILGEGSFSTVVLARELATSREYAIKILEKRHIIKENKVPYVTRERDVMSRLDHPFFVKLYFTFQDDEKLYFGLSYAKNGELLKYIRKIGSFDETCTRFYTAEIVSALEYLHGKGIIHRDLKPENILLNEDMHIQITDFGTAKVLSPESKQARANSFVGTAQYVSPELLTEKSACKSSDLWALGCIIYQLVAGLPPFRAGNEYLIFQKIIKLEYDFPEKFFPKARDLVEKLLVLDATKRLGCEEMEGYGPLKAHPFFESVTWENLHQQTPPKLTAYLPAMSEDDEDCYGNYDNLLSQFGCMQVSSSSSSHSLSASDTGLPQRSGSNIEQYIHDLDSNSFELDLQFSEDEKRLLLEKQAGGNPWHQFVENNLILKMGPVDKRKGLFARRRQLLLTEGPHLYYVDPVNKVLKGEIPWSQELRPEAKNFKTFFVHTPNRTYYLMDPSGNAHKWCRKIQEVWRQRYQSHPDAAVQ
Conditions: Ki (VI16742), PDK1 (PDPK1) IPI00002538.
Description: as §1, §2

Test [6] addresses cellular target proteins in HeLa cell lysate (Homo sapiens, UniProt O60331). Conditions: Ki (VI16742), PIP5K1C IPI00029009.
Description: as §1, §2

Test [7] has as its target cellular target proteins in HeLa cell lysate (Homo sapiens, UniProt P28482). The conditions noted are these: Ki (VI16742), Erk2 (MAPK1) IPI00003479.
Description: as §1, §2

The target of test [8] is cellular target proteins in HeLa cell lysate (Homo sapiens, UniProt Q9BVS4). Conditions: Ki (VI16742), RIOK2 IPI00306406.
Description: as §1, §2

For test [9], the target named is cellular target proteins in HeLa cell lysate (Homo sapiens, UniProt O14976). The conditions noted are these: Ki (VI16742), GAK IPI00298949.
Description: as §1, §2

Test [10] has as its target cellular target proteins in HeLa cell lysate (Homo sapiens, UniProt Q9P289). The conditions noted are these: Ki (VI16742), MST4 IPI00292827.
Description: as §1, §2

The target in test [11] is cellular target proteins in HeLa cell lysate (Homo sapiens, UniProt Q9Y6I9). Conditions: Ki (VI16742), TEX264 IPI00796519.
Description: as §1, §2

In test [12] the target is cellular target proteins in HeLa cell lysate (Homo sapiens, UniProt O43353). The conditions noted are these: Ki (VI16742), RIPK2 IPI00021917.
Description: as §1, §2

The target in test [13] is cellular target proteins in HeLa cell lysate (Homo sapiens, UniProt Q5VT25). Conditions: Ki (VI16742), MRCKa (CDC42BPA) IPI00640957.
Description: as §1, §2

Test [14] addresses cellular target proteins in HeLa cell lysate (Homo sapiens, UniProt Q96BR1). Conditions: Ki (VI16742), SGK3 IPI00655852.
Description: as §1, §2

The structures appear in SMILES notation. pKi: −log10 of the molar value.

Regarding `CC(C)n1c(=O)ccc2cnc(Nc3ccc(OCCN)cc3)nc21` [V16742], the pKi was 4.50 in test [1]; 4.38 in test [2]; 4.24 in test [3]; 4.19 in test [4]; 4.55 in test [5]; 4.22 in [6]. The negative logarithm of the Ki (pKi) is 4.63 in [7]; 4.32 in test [8]; 4.54 in test [9]; 4.13 in [10]; 4.28 in [11]; 5.30 in test [12]. For the same molecule, the values for the negative logarithm of the Ki (pKi) in [13] and in test [14] were 4.76 and 4.75, respectively.

For the origin of these results see US8959984B2, “Proteome-wide quantification of small molecule binding to cellular target proteins” (priority 2007, dated 2015).
